## scFv variants of Ab-91 (heavy chain) against a SARS-CoV-2 spike peptide

Reference: Engelhart et al. 2022, doi:10.1038/s41597-022-01779-4. File: FLAb, binding data.

All variants were tested on one target, the spike HR2 peptide PDVDLGDISGINAS (SARS-CoV-2).

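The starting antibody came from a phage panning campaign against this peptide. In library AAYL51, one, two or three CDR residues were substituted; doubles and triples were drawn at random. AlphaSeq pools MATa yeast showing the antibodies with MATalpha yeast showing the peptide. The frequency of each diploid, read from paired DNA barcodes, reflects how well the two displayed proteins bind. A regression on co-assayed BCL2-family reference pairs converts the normalised counts of each replicate to an apparent Kd. Each pool was mated in three replicate cultures.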

The variants keep the light chain, the linker and the frameworks of Ab-91 (scFv order VL, the linker GGGGSGGGGSGGGGS, VH).
VL: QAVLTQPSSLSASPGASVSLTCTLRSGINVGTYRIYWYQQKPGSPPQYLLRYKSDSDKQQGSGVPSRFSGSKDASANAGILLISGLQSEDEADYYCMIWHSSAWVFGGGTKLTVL
VH: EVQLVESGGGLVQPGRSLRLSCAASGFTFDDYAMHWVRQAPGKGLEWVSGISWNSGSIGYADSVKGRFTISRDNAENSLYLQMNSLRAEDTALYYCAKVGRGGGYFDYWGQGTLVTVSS

Positions count from residue 1 of the parent VH; G56Y puts Y in place of G.
Affinities are written as log10 Kd with Kd in nM; a lower number is a better binder.
Replicates are averaged; those with no signal do not enter the mean.
Where no diploid with the target was found in any replicate, the entry reads "not detected": below detection, most likely a poor binder, though not proof of it.
In this assay the parent's reference entry averaged 1.86; its copy inside this library read 0.88.
Nonspecific signal, from three strains lacking the peptide, appeared in 21% of pairings of library AAYL51, centred on 4.54 (5% of these signals below 3.26); values are not corrected for it.

| changes | log10 Kd (nM), mean | seen in |
|---|---|---|
| G56Y+I58K+V99M | 0.89 | 3/3 |
| M34T+Y60V+Y108A | 5.47 | 3/3 |
| S55Q+G56P+R101V | not detected | 0/3 |
| D31A+V99P+Y108T | not detected | 0/3 |
| G59T+G100C | 5.02 | 2/3 |
| T28E+G102S | 4.57 | 3/3 |
| H35V+I51Q+S52C | not detected | 0/3 |
| D30Y+S55P+V64C | 5.10 | 2/3 |
| A33L+Y108K | not detected | 0/3 |
| A61F+V99Y+R101G | not detected | 0/3 |
| Y60A+S63D | 3.31 | 3/3 |
| G50W+S63A+K65E | not detected | 0/3 |
| D30F+D31N+Y32E | 5.31 | 2/3 |
| D31L+G59E+V64P | not detected | 0/3 |
| D31S+G103P+Y105V | not detected | 0/3 |
| D30P+S52D | 5.68 | 1/3 |
| D31G+W53P+G100V | 4.35 | 1/3 |
| H35D+A61I+R101L | 3.95 | 1/3 |
| S52T+G104L+F106P | 4.34 | 1/3 |
| I51N+G102T+Y105Q | not detected | 0/3 |
| D31G+S52F+G59H | 5.77 | 2/3 |
| I51K+G102Y+G104F | 4.07 | 1/3 |
| G26P+N54R+S63I | 5.27 | 2/3 |
| D31Q+M34L+H35K | not detected | 0/3 |
| D30E+S52R+Y108Q | not detected | 0/3 |
| G50N+I51H+K65M | not detected | 0/3 |
| F29N+A33H | 4.68 | 3/3 |
| G26P+G59M | not detected | 0/3 |
| G50E+S55E+S63P | 3.42 | 1/3 |
| F27M+A33M+Y60I | not detected | 0/3 |
| D30S+I58M+A61D | 0.64 | 3/3 |
| S55A+Y60D+V99P | not detected | 0/3 |
| D30P+D31A+G100C | 4.56 | 3/3 |
| N54Q+V64D+Y108K | 2.82 | 1/3 |
| D30A+H35D+K65S | not detected | 0/3 |
| G56Y+G103I+D107Q | 4.56 | 2/3 |
| Y32S+H35F+Y108S | not detected | 0/3 |
| M34Q+Y105T+F106L | 4.94 | 3/3 |
| A33Y+S57Q+R101Q | not detected | 0/3 |
| A33G+W53A | -0.19 | 3/3 |
| F27S+K65T+V99W | not detected | 0/3 |
| N54D+K65M+V99K | 2.36 | 3/3 |
| M34A+G100P+G102P | 3.95 | 1/3 |
| G50F+I51E+D62T | not detected | 0/3 |
| G26K+W53I+G56E | not detected | 0/3 |

Repeated from above, the 7 best binders with a signal in all replicates:

changes,"log10 Kd (nM), mean",seen in
A33G+W53A,-0.19,3/3
D30S+I58M+A61D,0.64,3/3
G56Y+I58K+V99M,0.89,3/3
N54D+K65M+V99K,2.36,3/3
Y60A+S63D,3.31,3/3
D30P+D31A+G100C,4.56,3/3
T28E+G102S,4.57,3/3